# Test system: C57BL/KsJ db/db mouse
# Assay: Antidiabetic and serum-lipid-lowering activity in the db/db mouse (Experiments I and II)
# Details: Experiment I, after 18 days' treatment, OGTT glucose 3 g/kg
smiles,measurement,setting,value
"CN(CCOc1ccc(CC2SC(=O)NC2=O)cc1)c1ccccn1 (centres unmarked) [Rosiglitazone, rosiglitazone, reference compound]",Variation % (AUC glucose at OGTT) vs control,,−25%
same,AUC glucose at OGTT,"fasting 18 hours, 5 hours after last treatment, mean ± S.E.",38174 ± 3555Δ a.u.
